For assay [1], the target named is T1, Transient receptor potential cation channel subfamily V member 3 (Homo sapiens) (UniProt Q8NET8).
T1 sequence (whole entry): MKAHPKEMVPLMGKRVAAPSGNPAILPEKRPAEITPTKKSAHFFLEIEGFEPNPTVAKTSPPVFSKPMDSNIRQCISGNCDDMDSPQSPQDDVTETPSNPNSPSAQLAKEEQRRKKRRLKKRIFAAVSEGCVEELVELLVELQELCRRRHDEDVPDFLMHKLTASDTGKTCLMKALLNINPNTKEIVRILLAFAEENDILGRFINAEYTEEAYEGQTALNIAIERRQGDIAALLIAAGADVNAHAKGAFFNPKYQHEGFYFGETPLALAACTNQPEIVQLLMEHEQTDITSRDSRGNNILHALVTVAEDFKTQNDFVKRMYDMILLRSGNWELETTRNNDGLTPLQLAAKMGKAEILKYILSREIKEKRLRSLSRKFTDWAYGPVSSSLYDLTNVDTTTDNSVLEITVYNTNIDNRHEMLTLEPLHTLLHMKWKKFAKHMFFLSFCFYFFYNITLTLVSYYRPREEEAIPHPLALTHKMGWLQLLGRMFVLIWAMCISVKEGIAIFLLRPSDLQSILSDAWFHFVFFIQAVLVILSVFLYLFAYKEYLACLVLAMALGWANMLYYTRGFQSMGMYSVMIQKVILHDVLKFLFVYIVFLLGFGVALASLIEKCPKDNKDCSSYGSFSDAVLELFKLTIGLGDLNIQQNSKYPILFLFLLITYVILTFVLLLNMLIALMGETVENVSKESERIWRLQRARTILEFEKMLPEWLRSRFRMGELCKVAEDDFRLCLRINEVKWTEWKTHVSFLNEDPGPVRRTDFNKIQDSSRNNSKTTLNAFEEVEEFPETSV
The assay is described as follows: Antagonist activity at human TRPV3 expressed in HEK293 cells assessed as inhibition of intracellular Ca2+ flux by Fluo4-AM dye based fluorescence analysis. Format: cell-based.

By UniProt entry, the sequences of proteins in these tests, tags left out.
UniProt Q9HBA0, whole entry: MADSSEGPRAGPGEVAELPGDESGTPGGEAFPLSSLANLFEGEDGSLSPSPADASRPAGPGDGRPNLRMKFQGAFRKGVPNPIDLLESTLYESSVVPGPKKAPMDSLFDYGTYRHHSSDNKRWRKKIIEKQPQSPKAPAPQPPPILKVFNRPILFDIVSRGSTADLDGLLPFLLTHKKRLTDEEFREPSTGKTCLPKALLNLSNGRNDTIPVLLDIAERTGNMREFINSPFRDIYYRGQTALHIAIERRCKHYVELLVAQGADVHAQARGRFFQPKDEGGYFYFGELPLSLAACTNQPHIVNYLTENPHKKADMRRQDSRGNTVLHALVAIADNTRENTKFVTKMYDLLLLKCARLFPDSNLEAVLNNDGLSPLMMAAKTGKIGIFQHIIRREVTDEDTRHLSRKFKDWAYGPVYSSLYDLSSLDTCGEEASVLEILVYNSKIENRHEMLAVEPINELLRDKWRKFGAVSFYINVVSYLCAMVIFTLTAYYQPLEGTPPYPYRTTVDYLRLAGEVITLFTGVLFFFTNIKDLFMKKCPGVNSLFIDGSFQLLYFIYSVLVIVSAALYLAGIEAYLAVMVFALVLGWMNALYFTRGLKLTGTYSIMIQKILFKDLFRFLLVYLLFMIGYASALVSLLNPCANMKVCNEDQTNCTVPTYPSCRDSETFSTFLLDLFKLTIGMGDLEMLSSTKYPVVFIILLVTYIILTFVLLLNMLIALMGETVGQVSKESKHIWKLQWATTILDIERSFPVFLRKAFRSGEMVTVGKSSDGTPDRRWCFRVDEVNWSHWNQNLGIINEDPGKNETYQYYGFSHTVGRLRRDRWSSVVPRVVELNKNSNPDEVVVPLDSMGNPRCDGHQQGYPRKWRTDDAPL

Assay [2] deals with Transient receptor potential cation channel subfamily V member 4 (Homo sapiens) (UniProt Q9HBA0). The assay is described as follows: Antagonist activity at human TRPV4 expressed in HEK293 cells assessed as inhibition of intracellular Ca2+ flux by Fluo4-AM dye based fluorescence analysis. Format: cell-based. On the technique in general: Calcium assays in cells follow changes in intracellular calcium, usually with a dye or a luminescent sensor.

SMILES strings stand for the structures. Calls of active or inactive are those of the source. No cut-off for these calls is given here.

In the case of `CC(CO)CC(C)c1ccccc1` (mixture of isomers), the outcome in assay [1] and in assay [2] was inactive.

For the origin of these results see ChEMBL document CHEMBL5576088, “Skin- and airway-deliverable TRPA1 inhibitor” (Bioorg Med Chem, 2024).
